Values quoted from earlier work as cited in US8623852B2, “Topical methods and compositions for the treatment of eye diseases and conditions” (Santen SAS, priority 2007, dated 2014).

In the case of Dexamethasone palmitate, the “penetration inside the eye” value (following topical administration) is given as “does not significantly penetrate” and the diffusion coefficient (in vivo) is given as “very low”.
